Source: publication PMC12196007 (Molecules, 2025)

Test: In situ single-pass intestinal perfusion
Assay type: in vivo, Sprague–Dawley (SD) rats
Details: ileum, 90 min
Protocol: The rats were anesthetized and secured in a supine position on a surgical platform maintained at 37 °C. […] A 10 cm intestinal segment was isolated, and incisions were made at both ends. Silicone tubes were inserted into the incisions and ligated. […] Subsequently, the test sample was perfused through the intestinal loop. […] The collected samples were centrifuged, and the supernatant was mixed with methanol to precipitate proteins. After a second centrifugation, the resulting supernatant was analyzed by HPLC.

Remaining dosage: 58.61 ± 0.21%
SMILES: COc1cc(/C=C/C(=O)CC(=O)/C=C/c2ccc(O)c(OC)c2)ccc1O [CUR, Curcumin]
